# Compound activity as filed in PubChem.
# Sampled rows, rich in hits. Any-hit rate of the full collection: about 2.2%.
# Nrf2 activator: Nrf2 pathway activation. AREc32 ARE-luciferase reporter (MCF7-derived line), luminescence, 24 h. Potency, µM (highest dose often 46.1 µM), inactives show at the top dose activation, actives largely listed as activators. 410,000 tested, 0.31% active. AID 624171; also: potency is read from the fitted curve at half-maximal effect; % of control where 0% means no effect; nearly all actives have a fitted effect of over 65% in size
#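 ARE-driven firefly luciferase activity in AREc32 cells measured after a 24 hr compound exposure at 37 deg C, using Steady-Glo reagent and a 30 min room-temperature hold.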
# A549 tox-1: kills or reduces viability of A549 cells in Nrf2 counter-screen. A549 ARE-Fluc cells, CellTiter-Fluor viability, 18-24 h. Potency, µM (series often up to 46 µM), without a hit: at the top dose activity change, negative = cytotoxicity, actives largely listed as inhibitors. 390,000 tested, 0.16% active. AID 504648; also: potency is read from the fitted curve at half-maximal effect; % is scaled to controls: 0 for no effect and ±100 for the full control effect
#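 Cytotoxicity counterscreen: CellTiter-Fluor fluorescence was measured in A549 ARE_Fluc cells after 18-24 h of compound exposure in a concentration series. The subsequent BugLite luminescent read reports ARE-luciferase activity.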
# Nrf2 block: inhibitors of Nrf2 signaling. A549 ARE-Fluc reporter, luciferase luminescence, 18-24 h. Potency, µM (doses to about 46 µM), for inactives: top-dose activity change, negative = inhibition, actives largely listed as inhibitors. 360,000 tested, 2.1% active. AID 504444; also: potency is read from the fitted curve at half-maximal effect; % is scaled to controls: 0 for no effect and ±100 for the full control effect; nearly all actives have a fitted effect of over 60% in size
#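 A549 ARE_Fluc cells (5000/well, 5% FBS OPTI-MEM) pre-incubated 2 h, then treated with compounds 18-24 h at 37C/5% CO2 in concentration-response. CellTiter-Fluor viability read first; BugLite luciferase luminescence after 15 min at room temperature gives Nrf2 activity.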
# B2AR arrestin: recruits beta-arrestin to the human beta2-adrenergic receptor; beta-arrestin recruitment to beta2AR, cell-based reporter; P07550; 330,000 tested, 0.02% active; Potency, µM (titrated, usually from 46.1 µM), for the others: at the top dose activation, hits mostly activators;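 also: potency is read from the fitted curve at half-maximal effect; 0% = DMSO controls and full agonism = EC100 isoproterenol or metaproterenol; nearly all actives have a fitted effect of over 65% in size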
# miR-21 reporter: miR-21 reporter, rising signal; Potency, µM (doses to about 38.3 µM), without a hit: at the top dose reporter change, positive = more light; HeLa miR-21 FLuc reporter, luciferase, 48 h; 340,000 tested, under 10 active; active = well fitted rising curve with a large enough effect; inconclusive = small, poorly fitted or top-dose-only effect; inactive = no such curve, though single readings can be large or run the other way;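 further: % of control where 0% means no effect; miR-21 action dims this reporter so a rising signal means less miR-21 action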
#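 Luminescence from a firefly luciferase reporter carrying a miR-21 binding site downstream, stably expressed under a CMV promoter in HeLa cells that make miR-21 endogenously, reports miRNA modulation after 48 h compound exposure up to approximately 40uM final.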
# FLuc enzyme inh: blocks purified firefly luciferase in Nrf2 counterscreen. Potency, µM (series often up to 57.5 µM), for the others: at the top dose activity change, negative = inhibition, most hits filed as inhibitors. shares compounds with Nrf2 block. purified firefly luciferase, luminescence inhibition. 1,400 tested, 4% active. AID 720522; also: potency is read from the fitted curve at half-maximal effect; % is scaled to controls: 0 for no effect and ±100 for the full control effect; nearly all actives have a fitted effect of over 65% in size
# A549 tox-2: A549 cytotoxicity, Nrf2 inhibitor counterscreen; shares compounds with Nrf2 block; A549 ARE-Fluc cells, cytotoxicity counterscreen; Potency, µM (doses to about 46.1 µM), inactives show at the highest dose activity change, negative = cytotoxicity, most hits filed as inhibitors; 1,400 tested, 2% active;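 also: potency is read from the fitted curve at half-maximal effect; cells exposed to compounds for 18 to 24 hours; % is scaled to controls: 0 for no effect and ±100 for the full control effect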
# ARE-Fluc inh: confirmation of Nrf2 inhibitors in A549 ARE reporter cells | shares compounds with Nrf2 block | A549 ARE-firefly luciferase reporter, luminescence | Potency, µM (titrated, usually from 46.1 µM), for inactives: at the top dose activity change, negative = inhibition, most hits filed as inhibitors | 1,400 tested, 74% active | AID 720524; also: potency is read from the fitted curve at half-maximal effect; % is scaled to controls: 0 for no effect and ±100 for the full control effect; nearly all actives have a fitted effect of over 65% in size
# * hit, by the source's call; ? = inconclusive; . = not tested or not shown. Unless noted, calls follow the shape of the dose curve; as a rule, active = well fitted curve in the direction sought with a large enough effect; inconclusive = small, poorly fitted or top-dose-only effect, or another doubt; inactive = no such curve, though single readings can be large; an effect the other way counts as inactive or inconclusive.
SMILES,Nrf2 activator,A549 tox-1,Nrf2 block,B2AR arrestin,miR-21 reporter,FLuc enzyme inh,A549 tox-2,ARE-Fluc inh
Cc1ccc(NC(=O)c2sc3nc[nH]c(=O)c3c2C)cc1C,5.8%,-0.8%,.,.,-58.0%,.,.,.
CCCCCCCn1c2c(c(=N)c3ccccc31)CCC2,0.4%,?,2.31µM*,0.3%,?,2.7%,?,1.46µM*
O=C(Nc1cccn(Cc2c(Cl)cccc2Cl)c1=O)c1ccccc1Cl,-0.6%,-25.8%,1.46µM*,0.5%,-5.4%,-25.3%,0.8%,9.2µM*
CCc1cccc(OCC(=O)Nc2ccc(C)c(S(=O)(=O)N3CCCCCC3)c2)c1,0.0%,-6.4%,?,0.1%,.,.,.,.
Cc1ccc(NC(=O)COc2ccc(N(C)C(=O)C(C)(C)C)cc2)cc1S(=O)(=O)N1CCCCC1,0.1%,?,3.66µM*,0.1%,.,-15.2%,?,5.17µM*
COC(=O)c1ccc(NC(=O)CC2C(=O)N(c3cccc(OC)c3)C(=O)N2Cc2ccco2)cc1 (centres undefined),7.2%,-9.4%,17.8%,.,-0.8%,.,.,.
CC(C)Cn1c(N)c(C(=O)COC(=O)CC23CC4CC(CC(C4)C2)C3)c(=O)n(C)c1=O,-0.3%,?,2.06µM*,-0.7%,?,-28.2%,-12.2%,.
CC(C)Cn1c(N)c(C(=O)COC(=O)/C=C/c2ccccc2)c(=O)n(C)c1=O,0.2%,?,6.51µM*,0.2%,.,1.3%,-4.8%,7.31µM*
CC(C)Cn1c(N)c(C(=O)CSc2ccccc2)c(=O)n(C)c1=O,2.1%,-2.5%,?,-0.7%,-8.9%,.,.,.
O=C(c1nc(-c2ccc(Cl)cc2)n2c1CCCCC2)N1CCN(c2ccccc2)CC1,0.6%,-5.0%,-27.5%,.,0.0%,.,.,.
O=C(NCCN1CCOCC1)C1(C(F)(F)F)CC(CCCO)CCCO1 (centres undefined),.,0.2%,12.9%,.,.,.,.,.
CC(=O)N1c2ccc(S(=O)(=O)NCC3CCC(C(=O)Nc4cc(C)ccc4C)CC3)cc2CC1C (centres undefined),4.2%,6.8%,?,.,23.0%,.,.,.
COc1cc(NC(=O)CSc2ncnc3c2cnn3Cc2ccccc2)cc(OC)c1,-0.4%,-11.7%,?,-0.4%,-2.2%,.,.,.
COc1ccc(OC)c(NC(=O)CSc2ncnc3c2cnn3-c2ccccc2Cl)c1,3.0%,?,4.61µM*,-0.2%,6.9%,-0.3%,-15.0%,.
Cn1nc(C(C)(C)C)cc1C(=O)NCc1ccc2c(c1)OCO2,-0.6%,-17.6%,1.84µM*,-1.2%,13.2%,3.9%,-16.2%,3.66µM*
O=S1(=O)C2CC3C=CC2(CN1Cc1ccccc1)O3 (centres undefined),.,-4.4%,27.9%,.,.,.,.,.
Cc1ccc(C(=O)c2sc(Nc3ccccc3)c(S(=O)(=O)c3ccccc3)c2N)c(C)c1,1.0%,-1.4%,.,.,1.6%,.,.,.
COc1cccc(NC(=O)N(Cc2cn(C)c3ccccc23)C2CCCCC2)c1,3.7%,?,3.26µM*,.,-23.6%,-10.6%,?,?
COc1ccc(NC(=O)C(C)n2c(C)c3cnn(-c4ccccc4)c(=O)c3c2C)cc1Cl (centres undefined),7.1%,-4.0%,-30.0%,.,-14.8%,.,.,.
COc1ccc(C(=O)NC(=S)NNC(=O)c2cnccn2)cc1,-0.5%,?,?,-0.2%,-4.1%,?,-27.4%,5.8µM*
COc1ccc(CC(=O)NNC(=O)c2cnccn2)cc1,-0.8%,5.5%,2.2%,0.3%,-0.7%,.,.,.

# Of the compounds above, 4 contain a Cl atom.
SMILES,Nrf2 activator,A549 tox-1,Nrf2 block,B2AR arrestin,miR-21 reporter,FLuc enzyme inh,A549 tox-2,ARE-Fluc inh
O=C(Nc1cccn(Cc2c(Cl)cccc2Cl)c1=O)c1ccccc1Cl,-0.6%,-25.8%,1.46µM*,0.5%,-5.4%,-25.3%,0.8%,9.2µM*
O=C(c1nc(-c2ccc(Cl)cc2)n2c1CCCCC2)N1CCN(c2ccccc2)CC1,0.6%,-5.0%,-27.5%,.,0.0%,.,.,.
COc1ccc(OC)c(NC(=O)CSc2ncnc3c2cnn3-c2ccccc2Cl)c1,3.0%,?,4.61µM*,-0.2%,6.9%,-0.3%,-15.0%,.
COc1ccc(NC(=O)C(C)n2c(C)c3cnn(-c4ccccc4)c(=O)c3c2C)cc1Cl (centres undefined),7.1%,-4.0%,-30.0%,.,-14.8%,.,.,.
